Reference: ChEMBL document CHEMBL1124245, “Investigation of the structural parameters involved in the mu and delta opioid receptor discrimination of linear enkephalin-related peptides” (J Med Chem, 1988)

Sequences of proteins named here, by UniProt entry; tags and fusion partners are left off.
UniProt P33535, whole entry: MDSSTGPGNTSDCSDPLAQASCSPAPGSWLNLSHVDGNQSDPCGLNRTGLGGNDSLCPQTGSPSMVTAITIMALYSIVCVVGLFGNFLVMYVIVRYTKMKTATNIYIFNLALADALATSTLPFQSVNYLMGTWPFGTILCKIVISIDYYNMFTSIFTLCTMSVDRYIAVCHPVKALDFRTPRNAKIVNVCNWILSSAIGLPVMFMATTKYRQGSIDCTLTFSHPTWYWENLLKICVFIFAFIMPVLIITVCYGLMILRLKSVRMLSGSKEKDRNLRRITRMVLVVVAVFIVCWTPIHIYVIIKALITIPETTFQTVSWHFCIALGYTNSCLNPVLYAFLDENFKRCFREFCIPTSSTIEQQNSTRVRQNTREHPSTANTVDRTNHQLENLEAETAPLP

Target: Mu-type opioid receptor (Rattus norvegicus, UniProt P33535)
Assay: Inhibition of [3H]DAGO binding to mu 1 opioid receptor in rat brain membranes
Assay type: cell membranes
Summary of the method: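 Rat brain membranes, 0.6–0.7 mg protein, in 50 mM Tris-HCl pH 7.4 with 1 nM [3H]DAGO. Incubated 40 min at 35 °C, then filtered and washed with cold buffer. Bound radioactivity counted by scintillation. Nonspecific binding taken with 10 µM levorphanol, triplicates. Nine unlabeled-ligand concentrations, Hill-plot fit, Ki by Cheng-Prusoff. Three to six independent determinations.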

`C[C@@H](NC(=O)[C@@H](N)Cc1ccc(O)cc1)C(=O)NCC(=O)N(C)[C@@H](Cc1ccccc1)C(=O)NCCO` [DAMGO] showed a Ki of 3.9 nM.
